# According to ChEMBL document CHEMBL5096242:
# Amino acid sequences for entries named in this document (tags omitted).
# UniProt P0DMS8, whole entry: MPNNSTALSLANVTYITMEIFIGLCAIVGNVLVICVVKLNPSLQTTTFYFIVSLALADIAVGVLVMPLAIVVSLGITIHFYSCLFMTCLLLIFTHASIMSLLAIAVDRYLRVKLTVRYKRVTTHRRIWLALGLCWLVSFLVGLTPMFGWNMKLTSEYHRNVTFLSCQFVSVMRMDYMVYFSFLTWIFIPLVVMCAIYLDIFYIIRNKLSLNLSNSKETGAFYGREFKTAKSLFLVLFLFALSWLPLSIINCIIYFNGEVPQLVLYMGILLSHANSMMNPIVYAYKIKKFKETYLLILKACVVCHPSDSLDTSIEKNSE
# Biological target: Adenosine receptor A3 (Homo sapiens, UniProt P0DMS8)
# Assay: Positive allosteric modulator activity in wild type human A3AR opioid receptor stably expressed in human HEK293 cell membrane assessed as increase in CI-IB-MECA induced [35S]GTPGAgammaS binding to receptor at 10 uM preincubated for 1 hrs with CI-IB-MECA further incubated with [35S]GTPGAgammaS for …
# Type: cell membranes
# Settings: filed as positive allosteric modulator, time 3.0 hrs
smiles,measurement,value
OC1CCCC(c2nc3c(Nc4ccc(Cl)c(Cl)c4)nc4ccccc4c3[nH]2)CC1 (racemic; 34),Activity,50%
